Consider one compound from patent publication US6358936B2, “Compounds for the treatment of cancer” (Ardenia Investments, Ltd., priority 1998, dated 2002).

The experiment concerns EAC cells. The experiment in a line: Antitumor effect of compound 1 and doxorubicin on EAC in C3H mice (Example 20). The format is in vivo. To be noted: dose 50 μg/mouse i.v. (doxorubicin equivalent, 2.5 mg/kg), days 2, 4, 6, day 9. As for the experimental part:
A study of the anti-tumour effect of compound 1 as compared with doxorubicin was carried out in EAC, passed in C3H mice. 20-22 g males of C3H mice were used. Control and experimental groups included 7 animals, which were inoculated 5×10^6 EAC cells i.p. in volume 0.2 ml at day 0. On second, fourth and sixth days following inoculation the doses of 20, 50 and 100 μg/mouse of compound 1, equivalent ones of doxorubicin, in 200 μl of normal mice serum (NMS) were injected i.v. Three groups of animals were administrated water solutions of doxorubicin in doses^—of 1, 2.5 and 5 μg/kg of body weight (20, 50 and 100 μg/mouse by weight of 20 g accordingly). One group of mice was untreated control. Results of experiment were accounted on ninth day. Mice were killed by cervical dislocation. Ascitic fluids were removed, collected, their volumes were measured, and abdominal cavities were washed by saline solution 6-7 times. Thus obtained fluids were pooled. The number of viable tumor cells was counted by hemocytometer, using trypan blue exclusion test. The mean and the standard mean error was calculated for each group of mice. Comparison of tumor cell number in control and experimental groups was carried out using Student t-test. Influence of tested preparation on EAC growth inhibition was evaluated by: [formula]

On to `COc1cccc2c1C(=O)c1c(O)c3c(c(O)c1C2=O)C[C@@](O)(C(=O)CO)C[C@@H]3O[C@H]1C[C@H](N)[C@H](O)[C@H](C)O1` [DXR, doxorubicin, reference compound], for which the “EAC growth inhibition, % to control” value is 45.4%.
